# Experimental data reported in US6894053B2, “Serotonergic agents with long-acting in vivo effects” (Wyeth, priority 2001, dated 2005).
# Protein sequences, listed by entry. Tags and fused reporters are not part of them.
# UniProt P19327, whole entry: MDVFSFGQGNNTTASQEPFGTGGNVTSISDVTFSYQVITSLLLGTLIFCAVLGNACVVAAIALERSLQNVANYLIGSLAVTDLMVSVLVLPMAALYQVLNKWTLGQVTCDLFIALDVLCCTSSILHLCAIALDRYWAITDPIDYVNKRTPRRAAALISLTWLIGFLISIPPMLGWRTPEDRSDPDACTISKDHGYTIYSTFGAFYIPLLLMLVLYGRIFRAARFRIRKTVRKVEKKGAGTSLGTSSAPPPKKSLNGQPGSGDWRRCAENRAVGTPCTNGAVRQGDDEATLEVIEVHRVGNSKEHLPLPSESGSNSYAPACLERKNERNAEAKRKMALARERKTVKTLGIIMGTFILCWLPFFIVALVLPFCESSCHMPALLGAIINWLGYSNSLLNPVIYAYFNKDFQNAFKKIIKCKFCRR
# Target: T1, 5-HT1A (Rattus norvegicus, UniProt P19327)
# T1 construct: from tissue; host or cells: rat brain (cortex and hippocampus membranes in the ex vivo assay; whole animal in the behavioural model)
# Assay: Fixed Responding Model (fixed-ratio 30 food schedule), antagonism of 8-OH-DPAT
# Format: in vivo
# Details: 8-OH-DPAT 1 mg/kg sc alone
# Description: The ability of the compounds of this invention to function in vivo as 5-HT1A antagonists was assessed in rats using a Fixed Responding Model (Blackman, D., in, “Operant Conditioning: An Experimental Analysis of Behavior”, J. Butcher, Ed., Methuen and Co., Ltd., London). In this model rats are trained to respond (lever pressing) under a fixed-ratio 30 schedule of food presentation in order to receive a food pellet reinforcer. Administration of the 5-HT1A agonist 8-OH-DPAT reduces the response rate observed from administration of vehicle (Table 3). 5-HT1A antagonist activity is assessed by determining the test compound's ability to antagonize this decrease in response rate induced by administration of the agonist.
# This long-lasting effect makes the compounds of this invention especially useful in the treatment of chronic diseases such as those described above. Additionally, the long-lasting effects of the compounds of this invention make them useful as biological tools for the study of the role and effects of 5-HT1A antagonism both in vitro and in vivo.
compound,measurement,value
"CCCN(CCC)C1CCc2cccc(O)c2C1 (stereo not shown) [Example 8-OH-DPAT, 8-OH-DPAT, reference compound]",Response Rate,0.5 ± 0.2 responses/second
